From patent US6316594A, “Antimicrobial peptide isolated from parasilurus asotus and its uses” (priority 1998, dated 2001) come the findings set out here.

Each structure is given as a SMILES string.

For the data set, the system named is human erythrocytes. Put plainly: Hemolytic activity assay. The following applies: peptide 200 μg/ml. The protocol:
The hemolytic activity of the antimicrobial peptide was assayed as described by Park et al. (9).

Turning to `CC[C@H](C)[C@H](NC(=O)CN)C(=O)NCC(=O)N[C@@H](C)C(=O)N[C@H](C(=O)N[C@@H](CC(C)C)C(=O)N[C@@H](CCCCN)C(=O)N[C@H](C(=O)N[C@@H](CC(C)C)C(=O)N[C@H](C(=O)N[C@H](C(=O)NCC(=O)N[C@@H](CC(C)C)C(=O)N1CCC[C@H]1C(=O)N[C@@H](C)C(=O)N[C@@H](CC(C)C)C(=O)N[C@H](C(=O)N[C@@H](CO)C(=O)N[C@@H](Cc1c[nH]c2ccccc12)C(=O)N[C@H](C(=O)N[C@@H](CCCCN)C(=O)N[C@@H](CCCNC(=N)N)C(=O)N[C@@H](CCCCN)C(=O)N[C@@H](CCCNC(=N)N)C(=O)N[C@@H](CCC(N)=O)C(=O)N[C@@H](CCC(N)=O)C(N)=O)[C@@H](C)CC)[C@@H](C)CC)[C@@H](C)O)[C@@H](C)O)C(C)C)C(C)C` [melittin, reference compound], the hemolysis is listed as 99.2%.
